# Ab-95 light chain CDR variants: yeast mating affinities

The measurements come from Engelhart et al. 2022 (doi:10.1038/s41597-022-01779-4) through the FLAb antibody collection.

Antigen: PDVDLGDISGINAS, a 14-residue peptide of the SARS-CoV-2 spike HR2 region.

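Phage display of a naive human antibody library on the peptide gave the parent. In library AAYL52, one, two or three CDR residues were substituted; doubles and triples were drawn at random. Affinity was read by AlphaSeq, a pooled yeast mating assay with surface-displayed partners. The frequency of each diploid, read from paired DNA barcodes, reflects how well the two displayed proteins bind. The ratio of observed to expected reads was calibrated, replicate by replicate, on BCL2-family standards whose Kd was known from biolayer interferometry. Mating was done three times.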

Parent: Ab-95, a human scFv built as VH, a 15-residue (Gly4Ser)3 linker, VL. Only the CDRs of the light chain vary.
VH: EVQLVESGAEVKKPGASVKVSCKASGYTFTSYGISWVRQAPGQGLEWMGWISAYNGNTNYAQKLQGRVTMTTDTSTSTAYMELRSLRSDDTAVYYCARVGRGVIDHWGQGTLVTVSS
VL: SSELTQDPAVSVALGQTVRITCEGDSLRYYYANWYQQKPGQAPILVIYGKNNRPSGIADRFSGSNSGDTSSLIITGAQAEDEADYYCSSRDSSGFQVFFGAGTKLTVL

Variants are written as CDR1, CDR2 and CDR3 of the light chain (limits as in the source). Parent: EGDSLRYYYAN, GKNNRPS, SSRDSSGFQVF. The read-out is the apparent dissociation constant on a log10 scale (nM): the lower, the stronger. A pair that was not seen in that replicate is written "nd"; this usually means weak binding, but a binder can also be missed. Empty control strains, which show no peptide, gave a signal in 28% of pairings with library AAYL52; the median was 3.91 and 95% of these signals were weaker than 2.90. No background was subtracted. For each scFv, signals with the empty controls are counted beside the result, with their mean in brackets.

{"CDR-L1": "EGDSLRYYYAN", "CDR-L2": "GKWNNPS", "CDR-L3": "SSRVSSGFQVF", "log10 Kd, replicates": "4.91 4.73 4.19", "signal with controls": "4/9 (4.70)"}
{"CDR-L1": "EGDSLRYYYAR", "CDR-L2": "YKNNRPS", "CDR-L3": "SSRDSSGFQKF", "log10 Kd, replicates": "3.36 nd nd", "signal with controls": "1/9 (3.83)"}
{"CDR-L1": "EGDGLRYYYAN", "CDR-L2": "GKNNRPS", "CDR-L3": "TSRDSSGFQVF", "log10 Kd, replicates": "2.20 2.42 2.29", "signal with controls": "2/9 (3.59)"}
{"CDR-L1": "SGDSLRYYYAN", "CDR-L2": "TTNNRPS", "CDR-L3": "SSRDSSGFQVF", "log10 Kd, replicates": "2.87 3.96 2.78", "signal with controls": "4/9 (3.26)"}
{"CDR-L1": "EGDSLRYYYHN", "CDR-L2": "VKNNRPS", "CDR-L3": "HSRDSSGFQVF", "log10 Kd, replicates": "nd nd nd", "signal with controls": "0/9"}
{"CDR-L1": "EKDSLRYYYAN", "CDR-L2": "GKNNRLS", "CDR-L3": "SSRDSSAFQVF", "log10 Kd, replicates": "nd nd nd", "signal with controls": "1/9 (4.51)"}
{"CDR-L1": "EGDSLRYYYAA", "CDR-L2": "GKNNRNS", "CDR-L3": "SSRDSSGFQVF", "log10 Kd, replicates": "3.42 nd nd", "signal with controls": "1/9 (3.66)"}
{"CDR-L1": "EGISLRYYYAN", "CDR-L2": "GKNNRPQ", "CDR-L3": "TSRDSSGFQVF", "log10 Kd, replicates": "2.28 2.16 2.05", "signal with controls": "2/9 (4.23)"}
{"CDR-L1": "EGDSLRYYYAN", "CDR-L2": "GKNNKPS", "CDR-L3": "SSRDSSGSQKF", "log10 Kd, replicates": "nd nd nd", "signal with controls": "0/9"}
{"CDR-L1": "EGDSLRYYYAN", "CDR-L2": "GKNYRPS", "CDR-L3": "SSRDSSGLQVT", "log10 Kd, replicates": "3.25 3.01 4.19", "signal with controls": "1/9 (4.40)"}
{"CDR-L1": "EGDSLRYYKAN", "CDR-L2": "GKNNRPS", "CDR-L3": "SSRDSSGFQVK", "log10 Kd, replicates": "3.13 2.78 3.37", "signal with controls": "5/9 (4.37)"}
{"CDR-L1": "EGDSLRYYYAN", "CDR-L2": "GKNNRPS", "CDR-L3": "SSVDSSHFAVF", "log10 Kd, replicates": "2.81 2.50 2.07", "signal with controls": "1/9 (3.96)"}
{"CDR-L1": "EGDSLRYYYAI", "CDR-L2": "GKNNRPS", "CDR-L3": "SSRDSSGMQVD", "log10 Kd, replicates": "nd nd nd", "signal with controls": "3/9 (3.80)"}
{"CDR-L1": "EGDSLRYYYAN", "CDR-L2": "GKNARPS", "CDR-L3": "SSRISSGFQNF", "log10 Kd, replicates": "3.37 nd 4.22", "signal with controls": "1/9 (2.99)"}
{"CDR-L1": "EGDSLRSYYAN", "CDR-L2": "GKNWQPS", "CDR-L3": "SSRDSSGFQVF", "log10 Kd, replicates": "nd 3.58 nd", "signal with controls": "1/9 (3.13)"}
{"CDR-L1": "MGDSLQYYYAN", "CDR-L2": "GKRNRPS", "CDR-L3": "SSRDSSGFQVF", "log10 Kd, replicates": "5.59 nd nd", "signal with controls": "2/9 (4.33)"}
{"CDR-L1": "EGDSLRYYYAN", "CDR-L2": "VKNNVPS", "CDR-L3": "SSRASSGFQVF", "log10 Kd, replicates": "nd 5.35 nd", "signal with controls": "1/9 (5.27)"}
{"CDR-L1": "EGDSLRYYYAN", "CDR-L2": "GKNNRGS", "CDR-L3": "SSRDSSLFQYF", "log10 Kd, replicates": "nd nd nd", "signal with controls": "3/9 (4.14)"}
{"CDR-L1": "EGDSLRYYNAN", "CDR-L2": "GKNNRPS", "CDR-L3": "SCSDSSGFQVF", "log10 Kd, replicates": "1.45 1.55 0.88", "signal with controls": "1/9 (4.73)"}
{"CDR-L1": "EGDELRYYYPN", "CDR-L2": "GKNGRPS", "CDR-L3": "SSRDSSGFQVF", "log10 Kd, replicates": "3.45 2.90 3.44", "signal with controls": "1/9 (3.93)"}
{"CDR-L1": "EGDSLRYYYAN", "CDR-L2": "GKNYRQS", "CDR-L3": "SSRDSSGFDVF", "log10 Kd, replicates": "2.57 2.31 2.14", "signal with controls": "3/9 (3.78)"}
{"CDR-L1": "EQDSLRVYYAN", "CDR-L2": "GKNNIPS", "CDR-L3": "SSRDSSGFQVF", "log10 Kd, replicates": "3.82 4.19 nd", "signal with controls": "2/9 (3.99)"}
{"CDR-L1": "EYDHLAYYYAN", "CDR-L2": "GKNNRPS", "CDR-L3": "SSRDSSGFQVF", "log10 Kd, replicates": "3.25 2.36 2.96", "signal with controls": "3/9 (3.25)"}
{"CDR-L1": "EGDSLRYYYAN", "CDR-L2": "GKNNRPS", "CDR-L3": "SSRDSFGFQVQ", "log10 Kd, replicates": "nd nd nd", "signal with controls": "0/9"}
{"CDR-L1": "EGDFLRYYYAN", "CDR-L2": "GKNNRPS", "CDR-L3": "SSRDSSGKQVF", "log10 Kd, replicates": "2.69 3.21 2.96", "signal with controls": "5/9 (3.80)"}
{"CDR-L1": "EGDSLRYYLAN", "CDR-L2": "GKNNRPL", "CDR-L3": "SSRDVSGFQVF", "log10 Kd, replicates": "2.97 2.69 2.12", "signal with controls": "4/9 (4.11)"}
{"CDR-L1": "EGDSLRYYYAN", "CDR-L2": "GGNNRPE", "CDR-L3": "SHRDSSGFQVF", "log10 Kd, replicates": "2.70 2.44 2.06", "signal with controls": "4/9 (3.99)"}
{"CDR-L1": "EGDALSYYYAN", "CDR-L2": "GKNNRPS", "CDR-L3": "SSRLSSGFQVF", "log10 Kd, replicates": "3.91 4.26 3.76", "signal with controls": "3/9 (3.75)"}
{"CDR-L1": "EEDSLRYYYAN", "CDR-L2": "GKNNHPS", "CDR-L3": "SSRDSSGFQVL", "log10 Kd, replicates": "3.84 nd nd", "signal with controls": "2/9 (3.97)"}
{"CDR-L1": "SGDSLRYYYAN", "CDR-L2": "GKNNRPS", "CDR-L3": "SSRDSSVAQVF", "log10 Kd, replicates": "4.40 3.17 3.21", "signal with controls": "3/9 (4.00)"}
{"CDR-L1": "EGDSIRYYYAS", "CDR-L2": "GKNKRPS", "CDR-L3": "SSRDSSGFQVF", "log10 Kd, replicates": "nd nd nd", "signal with controls": "1/9 (4.07)"}
{"CDR-L1": "EGDSLRYYWAN", "CDR-L2": "GKNVRPS", "CDR-L3": "SSRDSSGFQYF", "log10 Kd, replicates": "2.47 3.08 nd", "signal with controls": "5/9 (3.91)"}

Repeated from above, the 4 best binders with a signal in all replicates:

CDR-L1	CDR-L2	CDR-L3	log10 Kd, replicates	signal with controls
EGDSLRYYNAN	GKNNRPS	SCSDSSGFQVF	1.45 1.55 0.88	1/9 (4.73)
EGISLRYYYAN	GKNNRPQ	TSRDSSGFQVF	2.28 2.16 2.05	2/9 (4.23)
EGDGLRYYYAN	GKNNRPS	TSRDSSGFQVF	2.20 2.42 2.29	2/9 (3.59)
EGDSLRYYYAN	GKNYRQS	SSRDSSGFDVF	2.57 2.31 2.14	3/9 (3.78)